PMC6944527 (The American Journal of Clinical Nutrition, 2019)
Where a name gives a salt, the structure may show the parent alone.

How the values were obtained:
[1] = biological target: T1, ThTR-2 (SLC19A3) (Homo sapiens, UniProt Q9BZV2); experiment: Clinical relevance ratio; conditions: based on current FDA guidelines; ratio >10
T1 sequence (Q9BZV2 1-496): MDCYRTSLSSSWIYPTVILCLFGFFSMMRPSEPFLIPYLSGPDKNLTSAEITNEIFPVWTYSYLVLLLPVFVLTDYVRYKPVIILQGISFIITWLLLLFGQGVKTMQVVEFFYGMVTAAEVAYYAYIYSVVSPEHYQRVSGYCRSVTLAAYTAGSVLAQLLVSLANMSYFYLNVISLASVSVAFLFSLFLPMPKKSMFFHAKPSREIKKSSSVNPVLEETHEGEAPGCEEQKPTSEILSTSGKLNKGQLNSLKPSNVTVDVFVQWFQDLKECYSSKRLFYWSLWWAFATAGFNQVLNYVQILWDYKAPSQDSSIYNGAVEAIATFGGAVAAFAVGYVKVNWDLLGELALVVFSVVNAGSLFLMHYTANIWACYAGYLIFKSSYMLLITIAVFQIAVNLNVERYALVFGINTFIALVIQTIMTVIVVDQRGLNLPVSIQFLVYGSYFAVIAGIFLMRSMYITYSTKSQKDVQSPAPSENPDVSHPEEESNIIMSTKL

[2] = biological target: T1, ThTR-2 (SLC19A3)

- DDI study recommended [1]: Yes
- IC50 [2]: 17 ± 5.24 µM
SMILES: CCN(CCO)CCCC(C)Nc1ccnc2cc(Cl)ccc12 (centres unmarked) [Hydroxychloroquine sulfate]
